31 molecules from PubChem BioAssay AID504339 (National Center for Advancing Translational Sciences (NCATS), 2011) can be followed below.

Sequences of proteins named here, by UniProt entry; tags and fusion partners are left off. A change or cut given only in a name is not applied to a line headed by its entry.
UniProt O75164: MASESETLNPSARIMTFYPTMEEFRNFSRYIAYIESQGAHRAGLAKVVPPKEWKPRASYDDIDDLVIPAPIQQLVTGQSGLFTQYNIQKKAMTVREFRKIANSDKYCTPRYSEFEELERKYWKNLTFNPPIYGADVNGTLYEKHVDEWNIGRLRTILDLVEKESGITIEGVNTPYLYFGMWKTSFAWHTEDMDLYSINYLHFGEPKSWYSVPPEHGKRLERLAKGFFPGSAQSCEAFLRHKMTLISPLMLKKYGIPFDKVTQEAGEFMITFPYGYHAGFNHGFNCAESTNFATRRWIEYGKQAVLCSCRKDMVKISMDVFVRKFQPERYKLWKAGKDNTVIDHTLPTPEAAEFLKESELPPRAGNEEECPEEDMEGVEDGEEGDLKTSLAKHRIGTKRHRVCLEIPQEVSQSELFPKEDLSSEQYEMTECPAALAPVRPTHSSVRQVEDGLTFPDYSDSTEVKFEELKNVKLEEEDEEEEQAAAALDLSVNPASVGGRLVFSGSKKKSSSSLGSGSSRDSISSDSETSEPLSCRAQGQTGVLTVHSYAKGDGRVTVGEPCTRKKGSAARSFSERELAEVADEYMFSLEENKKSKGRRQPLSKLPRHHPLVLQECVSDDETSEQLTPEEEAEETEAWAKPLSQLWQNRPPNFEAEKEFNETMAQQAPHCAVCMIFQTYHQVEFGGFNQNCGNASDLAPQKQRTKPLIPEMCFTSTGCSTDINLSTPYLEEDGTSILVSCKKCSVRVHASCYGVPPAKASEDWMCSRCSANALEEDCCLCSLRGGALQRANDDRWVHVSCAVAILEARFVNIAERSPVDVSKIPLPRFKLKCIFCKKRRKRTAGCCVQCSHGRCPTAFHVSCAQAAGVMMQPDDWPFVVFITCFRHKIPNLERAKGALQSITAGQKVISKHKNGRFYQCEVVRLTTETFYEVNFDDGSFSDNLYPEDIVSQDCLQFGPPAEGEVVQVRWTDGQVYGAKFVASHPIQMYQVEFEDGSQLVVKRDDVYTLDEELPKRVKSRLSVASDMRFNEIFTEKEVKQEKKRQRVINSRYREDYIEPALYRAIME

Each structure is given as a SMILES string. This is a selection; strong and weak results do not stand in their true shares. Records with an inconclusive call do not appear. Activity calls are given as the source filed them. Calls come from the whole dose curve; as a rule, active = well fitted inhibition curve with a large enough effect; inconclusive = small, poorly fitted or top-dose-only effect; inactive = no such curve, though single readings can be large or run the other way.
% is set by controls: 0 for no effect and ±100 for the full control effect; potency is the fitted concentration of half-maximal effect.

The target in the test is Lysine-specific demethylase 4A (Homo sapiens) (UniProt O75164). Description: qHTS Assay for Inhibitors of JMJD2A-Tudor Domain. Note: nearly all actives have a fitted effect of over 50% in size. The settings on record: AlphaScreen JMJD2A-Tudor / H3K4me3 peptide binding; series mostly up to 114 µM; activity change, negative = inhibition: at the top concentration. A general note: qHTS replaces the single test concentration by a dilution series.
With `O=P(Nc1nccs1)(c1ccccc1)c1ccccc1`, the “activity change, negative = inhibition” value was inactive: -2.15%.

Regarding `CC(C)C(=O)NC(Sc1ccccc1)C(Cl)(Cl)Cl` (stereo unspecified), the “activity change, negative = inhibition” value was inactive: 0%.

As for `O=[N+]([O-])c1ncn(CCn2cnc([N+](=O)[O-])n2)n1`, the activity change, negative = inhibition is inactive: 2.21% [at 11.4 µM].

`O=[N+]([O-])c1ccc(O)c(/C=N/Nc2ccc([N+](=O)[O-])cc2[N+](=O)[O-])c1`: the Potency is active: 44.7 µM.

As for `O=[As](O)(c1ccccc1)c1ccc(O)cc1`, the “activity change, negative = inhibition” value is inactive: -5.86%.

Regarding `C(Cc1nn[nH]n1)Cc1nn[nH]n1`, the Potency was active: 39.8 µM.

For the molecule `Nc1ccc([As](=O)(O)c2ccc([N+](=O)[O-])cc2)cc1`, the “activity change, negative = inhibition” value is inactive: -7.59%.

In the case of `O=C(OC1CN2CCC1CC2)c1cccc(Cl)c1` (stereo unspecified), the “activity change, negative = inhibition” value was inactive: -8.89%.

With `CN(C)C1(CNC(=O)c2ccc(Cl)c(S(N)(=O)=O)c2)CCCCC1`, the “activity change, negative = inhibition” value is inactive: 4.41%.

Regarding `O=P(Nc1ccccn1)(c1ccc(Br)cc1)c1ccc(Br)cc1`, the “activity change, negative = inhibition” value was inactive: -14.7%.

Consider `O=P(Nc1nc2ccccc2s1)(c1ccccc1)c1ccccc1`, for which the “activity change, negative = inhibition” value is inactive: -23.4%.

`C[C@H]1OP(=O)(Oc2ccccc2)[C@H](O)[C@H](O)[C@H]1N=[N+]=[N-]` (stereo partly specified): the “activity change, negative = inhibition” value was inactive: -6.47%.

As for `COC(=O)c1cc2c(s1)N=C(c1ccccc1)N(C)P2(=O)N1CCOCC1` (stereo unspecified), the “activity change, negative = inhibition” value is inactive: 12.3%.

Consider `Cc1ccc(OP(=O)(Nc2ccccn2)Oc2ccc(C)cc2)cc1`, for which the activity change, negative = inhibition is inactive: -18% [at 11.4 µM].

As for `CC(=O)NC(SC(=S)N(CC(C)C)CC(C)C)C(Cl)(Cl)Cl` (stereo unspecified), the “activity change, negative = inhibition” value was inactive: -9.93%.

For the molecule `O=C(OC1CN2CCC1CC2)c1ccccc1` (stereo unspecified), the “activity change, negative = inhibition” value was inactive: -11.9%.

Consider `CCC(=O)N1C2C3N(C(=O)CC)C1C1N(C(=O)CC)C(C(N1C(=O)CC)N3C(=O)CC)N2C(=O)CC`, for which the “activity change, negative = inhibition” value is inactive: 6.71%.

For `CC(NC(=O)COC(=O)C(O)(c1ccccc1)c1ccccc1)c1ccccc1` (stereo unspecified), the “activity change, negative = inhibition” value is inactive: 1.95%.

With `Cc1ccccc1OP(=O)(Nc1ccccn1)Oc1ccccc1C`, the “activity change, negative = inhibition” value was inactive: -8.33%.

As to `CN(C)C(=O)Oc1noc2ccccc12`, the “activity change, negative = inhibition” value was inactive: -6.9%.

As for `O=C(NC1CCS(=O)(=O)C1)NP(=S)(Oc1ccccc1)Oc1ccccc1` (stereo unspecified), the activity change, negative = inhibition is inactive: -6.01% [at 11.4 µM].

Take `CCNC(=S)/N=C(\N)N[N+](=O)[O-]`: the “activity change, negative = inhibition” value was inactive: -1.42%.

Turning to `Cc1ccc(NP(=O)(Oc2cccc(C)c2)Oc2cccc(C)c2)nc1`, the “activity change, negative = inhibition” value is inactive: 2.85%.

For `O=P1(N(CCCl)CCCl)OCCC2CCCCN21` (stereo unspecified), the “activity change, negative = inhibition” value is inactive: 1.38%.

With `CC(=O)c1ccc(N2CC2c2ccncc2)cc1` (stereo unspecified), the “activity change, negative = inhibition” value was inactive: -1.4%.

Consider `COC(=O)C1(C)COP(=O)(NCc2ccccc2)OC1` (stereo unspecified), for which the “activity change, negative = inhibition” value is inactive: -9.72%.

As to `Cc1ccccc1CN(C)C(=O)COC(=O)C(O)(c1ccccc1)c1ccccc1`, the “activity change, negative = inhibition” value was inactive: -8.33%.

As to `C[C@H]1OP(=O)(Oc2ccccc2)C[C@@H]2O[C@@H]21` (stereo partly specified), the “activity change, negative = inhibition” value is inactive: 0%.

Turning to `C[C@@H]1C=CCP(=O)(Oc2ccccc2)O1` (stereo partly specified), the “activity change, negative = inhibition” value was inactive: -28%.

On to `CC(=O)Nc1ccc([As](=O)(O)O)c(O)c1`, for which the “activity change, negative = inhibition” value was inactive: 13%.

For the molecule `CC(=O)Nc1ccc(Oc2c([N+](=O)[O-])cc([N+](=O)[O-])cc2[N+](=O)[O-])cc1`, the “activity change, negative = inhibition” value was inactive: -20.3%.
